Source: PubChem BioAssay AID588366 (Johns Hopkins Ion Channel Center, 2011)
Only a part is listed here, and it is no random draw. Activity calls are given as the source filed them.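 The calls were made as follows: active = mean of duplicate thallium-flux fluorescence ratios in parental host cells more than 5 SD below the buffer control mean (cut at about 0.38 in these data); inactive = the rest.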

Assay: nonspecific activity in CHO-K1 cells without KCNQ1 – parental CHO cells, Tl flux, counter-screen for KCNQ1 inhibitor project (AID 588366);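 also: ratio is peak minus minimum fluorescence divided by baseline fluorescence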
Conditions: parental CHO-K1, FluxOR thallium flux fluorescence ratio; at 10 µM; active compounds read low; zero means no signal rise above baseline
Outline: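 material = parental CHO-K1 cells lacking KCNQ1 channel expression | schedule = FluxOR dye loading 90 min, compound exposure 20 min, room temperature | technique = kinetic Tl+ flux fluorescence with FluxOR dye | controls = assay buffer-only wells as negative controls | replicates = each compound tested in duplicate wells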

Compound	fluorescence ratio (Tl flux)
COc1cc(C(=O)NCC2(N3CCOCC3)CCCCC2)cc(Cl)c1OC(C)C	inactive: 0.476
CCC1=CC2Cc3nc4ccc(Cl)cc4c(N)c3C(C1)C2 (configuration not stated)	inactive: 0.517
